Laboratory results as given in patent US4022791A (priority 1975, dated 1977).

Tested on: Rats
Conditions: 32 mg./kg. IP

COc1ccc(Cl)c2c1CCC(CN1CCC3(CC1)C(=O)N(C)CN3c1ccccc1)=C2
Rat Jump .5 hr (current at which the animal first jumps) (0.5 hour after administration): 1.2 milliamperes | Rat Jump 2 hr (current at which the animal first jumps) (2.0 hours after administration): 1.2 milliamperes
